In PubChem BioAssay AID624418 (National Center for Advancing Translational Sciences (NCATS), 2012):
This is a selection; strong and weak results do not stand in their true shares. Records with an inconclusive call do not appear. Active and inactive are the calls of the source. Calls follow the shape of the dose curve; as a rule, active = well fitted inhibition curve with a large enough effect; inconclusive = small, poorly fitted or top-dose-only effect, or another doubt; inactive = no such curve, though single readings can be large or run the other way.

Assay: qHTS of GLP-1 Receptor Inverse Agonists: Cytotox Screen;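 also: loss of luciferase light is scored as toxicity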
Details: HEK293 cAMP-luciferase reporter cells, luminescence, 24 h; series mostly up to 38.3 µM; activity change, negative = inhibition: at the top concentration
Excerpt: The overall goal of this project was to develop a novel assay for discovering small molecule ligands for class B1 G protein-coupled receptors (GPCRs). Very few agonists (or inverse agonists) with generally weak activity for this entire group of physiologically important receptors are known to date. To establish proof-of-principle that this critical bottleneck can be overcome with a suitable screening approach, our studies focused on the class B1 receptor for glucagon-like peptide-1 (GLP-1R), a potential therapeutic target for diabetes and neurodegenerative disease.
The assay was developed using a cell-based functional readout. Toward this goal, stably transfected HEK293 cell clones were established that co-express (i) a cAMP-responsive luciferase reporter gene, and (ii) constitutively active GLP-1R that upon ligand interaction inhibit (inverse agonists) the luciferase activity. In addition, two control cell lines were developed: (i) one that express only the cAMP-responsive reporter gene to enable initial exclusion of GLP-1R independent effects of candidate probes; and (ii) one with the reported gene cloned with another constitutively active orphan receptor GPR119 to enable exclusion of GLP-1R independent inhibitor effects of candidate inverse agonists.
To that end, this assay was optimized for 1536-well format and screened against the MLSMR. Then the same collection was run in this cytotoxicity assay where inhibition was the undesired outcome.
NIH Molecular Libraries Probe Production Network [MLPCN]
NIH Chemical Genomics Center [NCGC]
PI Name: Martin Beinborn, Tufts Medical Center
Six ul of cell suspension (200 cells/uL in DMEM + 10% Nu serum + 1% pen-strep) is dispensed in a white solid 1536-well plate. The plates are incubated for 12 hours at 37 deg C at 5% CO2 followed by addition of 23 nL compounds. After 24 hr incubation at 37 deg C and 5% CO2, 3 uL of luciferase assay detection reagent is added. A luminescence read is obtained on the PerkinElmer Viewlux after 12 min incubation at room temperature.
% is scaled to controls: 0 for no effect and ±100 for the full control effect; potency is read from the fitted curve at half-maximal effect.

SMILES	activity change, negative = inhibition	Potency
COc1ccccc1-c1ccccn1.O=[N+]([O-])c1cc([N+](=O)[O-])c(O)c([N+](=O)[O-])c1	inactive: -19.5%	
CCN(CC)CCCOC(=O)C(O)(c1ccccc1)c1ccccc1	inactive: -4.98%	
CCOC(=O)c1ccc(NP(C)(=O)Oc2ccccc2)cc1 (stereo not given)	inactive: 6.68%	
COc1ccccc1OP(C)(=O)Nc1ccc(C)cc1 (stereo not given)	inactive: 3.25%	
Cc1ccc(NP(C)(=O)Oc2ccccc2)c(C)c1 (stereo not given)	inactive: -10.4%	
COc1ccccc1OP(C)(=O)Nc1cc(Cl)ccc1C (stereo not given)	inactive: 0.514%	
COc1ccc(OP(C)(=O)Nc2cccc(F)c2)cc1 (stereo not given)	inactive: -13.3%	
Cc1cc(C)cc(OP(C)(N)=O)c1 (stereo not given)	inactive: -3.27%	
O=[N+]([O-])c1cc([N+](=O)[O-])c(Nc2cccnc2)c([N+](=O)[O-])c1	inactive: -27.1%	
Cc1cccc(C)c1OP(C)(N)=O (stereo not given)	inactive: -0.671% [at 7.66 µM]	
CP(=S)(Nn1cnnc1)Oc1ccccc1 (stereo not given)	inactive: 11.7%	
COc1ccccc1OP(C)(=O)Nc1ccccc1 (stereo not given)	inactive: 4.43%	
CP(=O)(Nc1ccccc1Br)Oc1ccccc1 (stereo not given)	inactive: 3.71%	
CCOP(C)(=S)SCC(=O)NC(C)C(=O)O (stereo not given)	inactive: 0.765%	
CCOC(=O)c1ccc(NP(C)(=O)Oc2ccc(OC)cc2)cc1 (stereo not given)	inactive: 2.92% [at 1.53 µM]	
CP(=O)(Nc1ccccn1)Oc1ccc(Cl)cc1 (stereo not given)	inactive: -0.677%	
Cc1cccc(C)c1OP(C)(=O)Nc1ccc(SC(F)(F)F)cc1 (stereo not given)	inactive: -7.13%	
CP(=O)(Nc1ccc(SC(F)(F)F)cc1)Oc1ccc(Cl)cc1 (stereo not given)	inactive: -24.3%	
CP(=O)(Oc1ccccc1)OC(c1ccccc1)C(F)(F)F (stereo not given)	inactive: 4.62%	
CCc1ccc(OP(C)(=O)N2CCN(c3ccc([N+](=O)[O-])cc3)CC2)cc1 (stereo not given)	inactive: -26.5%	
CP(=O)(NC(=O)Nc1ccccc1)Oc1ccccc1 (stereo not given)	inactive: 1.24%	
Cc1cc(C)cc(OP(C)(=O)Nc2ccc(SC(F)(F)F)cc2)c1 (stereo not given)	inactive: -4.96%	
O=[N+]([O-])c1cc([N+](=O)[O-])c(-c2cnn(-c3ccccc3)c2)c([N+](=O)[O-])c1	inactive: -15.1%	
CN(Cc1cccnc1)C(=O)COc1ccc(Cl)c(Cl)c1.O=[N+]([O-])c1cc([N+](=O)[O-])c(O)c([N+](=O)[O-])c1	inactive: -16.2%	
COc1ccccc1OP(C)(=O)Nc1c(C)cccc1C (stereo not given)	inactive: -8.21%	
CN1CCCCC1COC(=O)C1(O)c2ccccc2CCc2ccccc21 (stereo not given)	inactive: 9.77%	
CP(=O)(Nc1ccc(SC(F)(F)F)cc1)Oc1ccccc1 (stereo not given)	inactive: 0.921%	

SMILES	activity change, negative = inhibition	Potency
CCCOc1ccc(NP(C)(=O)Oc2ccc(Cl)cc2)cc1 (stereo not given)	inactive: 2.08%	
CC1=C2N=C(C=C3N=C(C(C)=C4[N-][C@@](C)([C@@H]5N=C1[C@](C)(CCC(=O)NC[C@@H](C)OP(=O)([O-])O[C@H]1[C@@H](O)[C@@H](n6cnc7cc(C)c(C)cc76)O[C@@H]1CO)[C@H]5CC(N)=O)[C@@](C)(CC(N)=O)[C@@H]4CCC(N)=O)[C@@](C)(CC(N)=O)[C@@H]3CCC(N)=O)C(C)(C)[C@@H]2CCC(N)=O.[C-]#N.[Co+3]	inactive: -15.3%	
CC1=NCCc2c1[nH]c1ccccc21.O=[N+]([O-])c1cc([N+](=O)[O-])c(O)c([N+](=O)[O-])c1	inactive: 15%	
CP(=O)(Nc1cccc(Br)c1)Oc1ccccc1 (stereo not given)	inactive: -0.272%	
Cc1cc(C)cc(OP(C)(=O)Nc2ccccn2)c1 (stereo not given)	inactive: 6.67%	
Cc1ccc(C)c(NP(C)(=O)Oc2ccccc2)c1 (stereo not given)	inactive: 11.6%	
COc1ccccc1OP(C)(=O)Nc1cccc(Br)c1 (stereo not given)	inactive: -4.26%	
Cc1cc(C)cc(OP(C)(=O)Nc2ccc(C)cc2C)c1 (stereo not given)	inactive: 6.25%	
O=C(OCCN1CCN(CCOCc2ccccc2)CC1)C(O)(c1ccccc1)c1ccccc1	inactive: -1.41%	
CC(C)c1ccc(OP(C)(=O)Nc2ccc(SC(F)(F)F)cc2)cc1 (stereo not given)	inactive: -21%	
CP(=O)(Nc1ccccc1F)Oc1ccccc1 (stereo not given)	inactive: 5.47%	
CCN(CC)CCCOC(=O)C(O)(c1ccccc1)C1CCCCC1 (stereo not given)	inactive: -3.72%	
Cc1c([N+](=O)[O-])cc([N+](=O)[O-])c(Br)c1[N+](=O)[O-]	inactive: -10.8%	
CP(=O)(Nc1ccccc1)Oc1ccc(F)cc1 (stereo not given)	inactive: 10.9%	
COc1ccc(OP(C)(=O)Nc2ccc(SC(F)(F)F)cc2)cc1 (stereo not given)	inactive: 1.73%	
CCOC(=O)c1ccc(NP(C)(=O)Oc2ccc(F)cc2)cc1 (stereo not given)	inactive: 6.76% [at 1.53 µM]	
O=[N+]([O-])c1ccc(OP2(=O)COCCO2)cc1 (stereo not given)	inactive: 0.848%	
Cc1c(C(c2ccc3c(c2)OCO3)c2c(C)n(C)n(-c3ccccc3)c2=O)c(=O)n(-c2ccccc2)n1C.O=[N+]([O-])c1cc([N+](=O)[O-])c(O)c([N+](=O)[O-])c1	inactive: 9.45%	
COc1ccc(OP(C)(=O)Nc2cccc(Br)c2)cc1 (stereo not given)	inactive: -11.4%	
COc1ccc(NP(C)(=O)Oc2ccccc2OC)cc1 (stereo not given)	inactive: -2.46%	
CN(C)CCOC(=O)C(O)(c1ccccc1)C1CCCCC1 (stereo not given)	inactive: 16.9%	
CP(=O)(Nc1ccc2c(c1)OCCO2)Oc1ccccc1 (stereo not given)	inactive: 0.116%	
O=[N+]([O-])c1cc([N+](=O)[O-])c(C(F)(F)F)c([N+](=O)[O-])c1O	inactive: -9.48%	
Cc1ccccc1NP(C)(=O)Nc1ccccc1C	inactive: -9.94%	
CP(=O)(Nc1ccc(SC(F)(F)F)cc1)Oc1ccc(F)cc1 (stereo not given)	inactive: 0.162%	
CCOP(C)(=S)SCC(=O)NC(C)(CC)C(=O)O (stereo not given)	inactive: -23.3%	
CP(=O)(Nc1ccc(Cl)cc1)Oc1ccc(F)cc1 (stereo not given)	inactive: -0.589%	

SMILES	activity change, negative = inhibition	Potency
CC(C)(C)c1ccc(OP(C)(=O)O)cc1	inactive: 7.31%	
COc1ccccc1OP(C)(=O)Nc1ccccc1Br (stereo not given)	inactive: -6.06% [at 7.66 µM]	
CN(C)C(=O)c1c([N+](=O)[O-])cc([N+](=O)[O-])cc1[N+](=O)[O-]	inactive: -29.1%	
CCN(CC)CC(O)COC(=O)C(O)(c1ccccc1)C1CCCCC1 (stereo not given)	inactive: 9.82%	
COc1ccc(OP(C)(=O)Nc2ccc(Br)cc2)cc1 (stereo not given)	inactive: 14%	
CP(=O)(Oc1ccccc1)N1CCOC1=O (stereo not given)	inactive: -5.79%	
CCc1ccc(OP(C)(=O)Nc2cccnc2)cc1 (stereo not given)	inactive: -0.754% [at 0.307 µM]	
COc1ccccc1OP(C)(=O)Nc1c(C)n(C)n(-c2ccccc2)c1=O (stereo not given)	inactive: -11.5%	
O=C(OCCCN1CCCC1)C(O)(c1ccccc1)C1CCCCC1 (stereo not given)	inactive: -5.02%	
Nc1ccc2c(ccc3cccnc32)n1.O=[N+]([O-])c1cc([N+](=O)[O-])c(O)c([N+](=O)[O-])c1	inactive: -21.1%	
CP(=O)(OC12CC3CC(CC(C3)C1)C2)OC12CC3CC(CC(C3)C1)C2	inactive: 1.05%	
CCOC(=O)c1ccc(NP(C)(=O)Oc2ccc(Cl)cc2)cc1 (stereo not given)	inactive: -4.16%	
CP(=O)(OCCOc1ccccc1)OCCOc1ccccc1	inactive: 18.3%	
CCCCCCCCCCCCCCCC1C[N+](C)(C)CCOP(C)(=O)O1 (stereo not given)	inactive: -6.91%	
CP(=O)(Nc1ccc(Cl)cc1Cl)Oc1ccccc1 (stereo not given)	inactive: 9.75%	
Cc1cc(C)cc(OP(C)(=O)Nc2cccc(C(F)(F)F)c2)c1 (stereo not given)	inactive: 2.72%	
COc1ccc(OP(C)(=O)Nc2ccccc2Br)cc1 (stereo not given)	inactive: 5.21%	
COc1ccccc1OP(C)(=O)Nc1ccc(C)c(C)c1 (stereo not given)	inactive: 15.5%	
O=[N+]([O-])c1cc([N+](=O)[O-])c(Nc2ccccn2)c([N+](=O)[O-])c1		active: 12.6 µM
Cc1c(NP(C)(=O)Oc2ccc(C(C)C)cc2)c(=O)n(-c2ccccc2)n1C (stereo not given)	inactive: -14.2%	
CCc1ccc(OP(C)(=O)O)cc1	inactive: 88%	
CP(=O)(Nc1ccccn1)Oc1ccccc1 (stereo not given)	inactive: 0.44%	
COc1ccccc1OP(C)(=O)Nc1ccc(C)cc1C (stereo not given)	inactive: -7.98%	
COc1ccccc1OP(C)(=O)Nc1ccc(Br)cc1 (stereo not given)	inactive: -7.85%	
CN(C)CCOC(=O)C(O)(c1ccccc1)C1CCCC1 (stereo not given)	inactive: -16.7%	
COc1ccc(OP(C)(=O)Nc2ccccn2)cc1 (stereo not given)	inactive: 11%	
